Reference: patent US20040166060A1, “Liposomal encapsulation of alpha particle emittors and uses thereof” (Sloan Kettering Institute for Cancer Research, priority 2000, published 2004)

Tested on: ovarian carcinoma
Parameters: species or system Balb/c nu/nu mice
Conditions: mouse, in vivo
Source text: In more than 40 mouse experiments, intraperitoneal injection of 5×10^6 previously passaged SKOV3 cells in 4-6 week old female Balb/c nu/nu mice has yielded 100% tumor take. By three weeks, discrete, mm-sized tumor nodules are observed around the spleen; in many cases such nodules are also found on the surface of the GI tract and liver. By four weeks discrete tumor nodules are replaced by contiguous masses of tumor around the spleen, GI tract and liver. At this time ascites fluid is also observed.
MicroPET and MRI-based pre-clinical biodistribution and localization data have been obtained using ^86Y-Herceptin (HER) antibody (anti-HER2/neu) against ovarian carcinoma (38-39). […] Optical images of FITC-Herceptin have also been obtained to provide a high resolution assessment of Herceptin targeting as shown in FIG. 19. This methodology is also used to evaluate tumor targeting of liposomes immunolabeled with Herceptin.

## ^86Y-Herceptin: 86Y-labeled Herceptin (HER) antibody (anti-HER2/neu)
  localization: localize to sites of disease with minimal normal organ uptake
